Ki data for two compounds are collected here from patent US6972282B1, “Process for producing a product containing antihypertensive tripeptides” (Valio Ltd., priority 1999, dated 2005).

Chains of the proteins cited; added tags and fusions are not shown. Residues count along the entry.
UniProt P12821, 30-1306, species assumed: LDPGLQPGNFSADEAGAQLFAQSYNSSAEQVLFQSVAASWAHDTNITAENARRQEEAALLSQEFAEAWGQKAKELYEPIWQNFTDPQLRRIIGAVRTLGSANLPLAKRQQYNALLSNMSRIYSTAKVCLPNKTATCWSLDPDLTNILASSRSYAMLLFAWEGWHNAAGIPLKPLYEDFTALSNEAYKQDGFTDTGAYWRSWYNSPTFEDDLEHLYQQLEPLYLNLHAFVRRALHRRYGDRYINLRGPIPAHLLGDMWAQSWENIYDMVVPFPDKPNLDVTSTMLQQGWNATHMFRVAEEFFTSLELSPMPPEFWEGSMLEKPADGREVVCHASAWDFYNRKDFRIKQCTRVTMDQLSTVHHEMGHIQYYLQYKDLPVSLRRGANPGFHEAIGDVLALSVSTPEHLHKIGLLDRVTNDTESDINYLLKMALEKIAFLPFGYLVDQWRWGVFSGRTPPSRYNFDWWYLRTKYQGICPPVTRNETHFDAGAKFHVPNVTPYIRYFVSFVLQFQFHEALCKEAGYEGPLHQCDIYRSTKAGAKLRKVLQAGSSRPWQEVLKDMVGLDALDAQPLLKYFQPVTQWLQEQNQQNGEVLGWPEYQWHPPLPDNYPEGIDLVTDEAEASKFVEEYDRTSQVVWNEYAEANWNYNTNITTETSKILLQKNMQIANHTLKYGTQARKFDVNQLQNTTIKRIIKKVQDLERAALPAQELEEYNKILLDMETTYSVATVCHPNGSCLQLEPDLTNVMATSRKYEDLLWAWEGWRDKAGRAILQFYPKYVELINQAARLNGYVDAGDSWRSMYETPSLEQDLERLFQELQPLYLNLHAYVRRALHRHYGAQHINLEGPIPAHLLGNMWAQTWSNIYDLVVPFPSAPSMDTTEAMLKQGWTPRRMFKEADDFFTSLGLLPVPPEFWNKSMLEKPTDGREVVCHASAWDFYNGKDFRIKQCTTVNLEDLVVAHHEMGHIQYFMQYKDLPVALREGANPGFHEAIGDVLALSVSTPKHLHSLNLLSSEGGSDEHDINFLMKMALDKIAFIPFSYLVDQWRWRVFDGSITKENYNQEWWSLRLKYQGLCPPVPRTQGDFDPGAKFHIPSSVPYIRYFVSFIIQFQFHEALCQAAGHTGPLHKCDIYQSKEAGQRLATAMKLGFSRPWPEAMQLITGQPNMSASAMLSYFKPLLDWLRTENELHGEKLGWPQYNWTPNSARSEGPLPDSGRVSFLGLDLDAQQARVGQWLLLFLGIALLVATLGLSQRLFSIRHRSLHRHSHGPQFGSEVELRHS

The Ki is a dissociation constant, usually derived from enzyme kinetics or from competition with a known ligand.

The target of this test is angiotensin converting enzyme (ACE) (Homo sapiens, UniProt P12821). Nature of the test: ACE inhibitory activity, inhibitor constant (continuous spectrophotometric assay, Holmquist et al.). The class given is biochemical. The conditions noted are these: the smaller the number, the more effective the ACE inhibitor.

As to `CC[C@H](C)[C@H](N)C(=O)N1CCC[C@H]1C(=O)N1CCC[C@H]1C(=O)O` [IPP, IIe-Pro-Pro], affinity was put at a Ki of 4.4 µM.

On to `CC(C)[C@H](N)C(=O)N1CCC[C@H]1C(=O)N1CCC[C@H]1C(=O)O` [VPP, Val-Pro-Pro], for which the affinity, expressed as Ki, was 18 µM.
